Chains of the proteins cited; added tags and fusions are not shown. Residues count along the entry.
UniProt O14965, 123-403 limits assumed: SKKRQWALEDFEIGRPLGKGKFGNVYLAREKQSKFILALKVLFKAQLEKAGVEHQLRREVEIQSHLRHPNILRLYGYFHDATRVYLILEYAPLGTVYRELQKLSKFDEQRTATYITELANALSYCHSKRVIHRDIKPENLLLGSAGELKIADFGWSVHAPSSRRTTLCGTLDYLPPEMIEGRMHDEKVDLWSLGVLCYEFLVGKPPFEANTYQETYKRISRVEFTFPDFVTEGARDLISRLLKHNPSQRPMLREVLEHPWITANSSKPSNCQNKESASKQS

In publication PMC4919790, “Allosteric modulation of AURKA kinase activity by a small-molecule inhibitor of its protein-protein interaction with TPX2” (Scientific Reports, 2016):

Molecular target: AURKA-TPX2 interaction (His-tagged AURKA123–403 / TAMRA-labelled TPX2 1–43) (Homo sapiens, UniProt O14965)
Assay: Fluorescence anisotropy (FA) competition assay: displacement of TAMRA-TPX2 1-43 from AURKA123-403
Conditions: for IC50: read-out: Average IC50, Supplementary Table 1, FA assay; for Ki: read-out: Calculated Ki, Supplementary Table 1, free-concentration corrected Cheng-Prusov

| IC50 | Ki | Structure (SMILES) |
| --- | --- | --- |
| > 500 µM | > 100 µM | O=C(O)c1cc(-c2cccc(F)c2)nc2ccc(Br)cc12 |
| 36 µM | 7.8 µM | O=C(O)c1cc(-c2cc(F)cc(F)c2)nc2ccccc12 |
| 163 µM | 35.5 µM | O=C(O)c1cc(-c2cccnc2)nc2ccc(Cl)cc12 |
